Molecular target: mouse brain RyR2 (Mus musculus, UniProt E9Q401)
Assay: Single-channel current recordings of RyR2 incorporated in artificial lipid bilayer
Settings: E2-liganded ERβ, approximately

The chains behind the UniProt entries cited, without tags or fusion partners.
UniProt E9Q401, whole entry: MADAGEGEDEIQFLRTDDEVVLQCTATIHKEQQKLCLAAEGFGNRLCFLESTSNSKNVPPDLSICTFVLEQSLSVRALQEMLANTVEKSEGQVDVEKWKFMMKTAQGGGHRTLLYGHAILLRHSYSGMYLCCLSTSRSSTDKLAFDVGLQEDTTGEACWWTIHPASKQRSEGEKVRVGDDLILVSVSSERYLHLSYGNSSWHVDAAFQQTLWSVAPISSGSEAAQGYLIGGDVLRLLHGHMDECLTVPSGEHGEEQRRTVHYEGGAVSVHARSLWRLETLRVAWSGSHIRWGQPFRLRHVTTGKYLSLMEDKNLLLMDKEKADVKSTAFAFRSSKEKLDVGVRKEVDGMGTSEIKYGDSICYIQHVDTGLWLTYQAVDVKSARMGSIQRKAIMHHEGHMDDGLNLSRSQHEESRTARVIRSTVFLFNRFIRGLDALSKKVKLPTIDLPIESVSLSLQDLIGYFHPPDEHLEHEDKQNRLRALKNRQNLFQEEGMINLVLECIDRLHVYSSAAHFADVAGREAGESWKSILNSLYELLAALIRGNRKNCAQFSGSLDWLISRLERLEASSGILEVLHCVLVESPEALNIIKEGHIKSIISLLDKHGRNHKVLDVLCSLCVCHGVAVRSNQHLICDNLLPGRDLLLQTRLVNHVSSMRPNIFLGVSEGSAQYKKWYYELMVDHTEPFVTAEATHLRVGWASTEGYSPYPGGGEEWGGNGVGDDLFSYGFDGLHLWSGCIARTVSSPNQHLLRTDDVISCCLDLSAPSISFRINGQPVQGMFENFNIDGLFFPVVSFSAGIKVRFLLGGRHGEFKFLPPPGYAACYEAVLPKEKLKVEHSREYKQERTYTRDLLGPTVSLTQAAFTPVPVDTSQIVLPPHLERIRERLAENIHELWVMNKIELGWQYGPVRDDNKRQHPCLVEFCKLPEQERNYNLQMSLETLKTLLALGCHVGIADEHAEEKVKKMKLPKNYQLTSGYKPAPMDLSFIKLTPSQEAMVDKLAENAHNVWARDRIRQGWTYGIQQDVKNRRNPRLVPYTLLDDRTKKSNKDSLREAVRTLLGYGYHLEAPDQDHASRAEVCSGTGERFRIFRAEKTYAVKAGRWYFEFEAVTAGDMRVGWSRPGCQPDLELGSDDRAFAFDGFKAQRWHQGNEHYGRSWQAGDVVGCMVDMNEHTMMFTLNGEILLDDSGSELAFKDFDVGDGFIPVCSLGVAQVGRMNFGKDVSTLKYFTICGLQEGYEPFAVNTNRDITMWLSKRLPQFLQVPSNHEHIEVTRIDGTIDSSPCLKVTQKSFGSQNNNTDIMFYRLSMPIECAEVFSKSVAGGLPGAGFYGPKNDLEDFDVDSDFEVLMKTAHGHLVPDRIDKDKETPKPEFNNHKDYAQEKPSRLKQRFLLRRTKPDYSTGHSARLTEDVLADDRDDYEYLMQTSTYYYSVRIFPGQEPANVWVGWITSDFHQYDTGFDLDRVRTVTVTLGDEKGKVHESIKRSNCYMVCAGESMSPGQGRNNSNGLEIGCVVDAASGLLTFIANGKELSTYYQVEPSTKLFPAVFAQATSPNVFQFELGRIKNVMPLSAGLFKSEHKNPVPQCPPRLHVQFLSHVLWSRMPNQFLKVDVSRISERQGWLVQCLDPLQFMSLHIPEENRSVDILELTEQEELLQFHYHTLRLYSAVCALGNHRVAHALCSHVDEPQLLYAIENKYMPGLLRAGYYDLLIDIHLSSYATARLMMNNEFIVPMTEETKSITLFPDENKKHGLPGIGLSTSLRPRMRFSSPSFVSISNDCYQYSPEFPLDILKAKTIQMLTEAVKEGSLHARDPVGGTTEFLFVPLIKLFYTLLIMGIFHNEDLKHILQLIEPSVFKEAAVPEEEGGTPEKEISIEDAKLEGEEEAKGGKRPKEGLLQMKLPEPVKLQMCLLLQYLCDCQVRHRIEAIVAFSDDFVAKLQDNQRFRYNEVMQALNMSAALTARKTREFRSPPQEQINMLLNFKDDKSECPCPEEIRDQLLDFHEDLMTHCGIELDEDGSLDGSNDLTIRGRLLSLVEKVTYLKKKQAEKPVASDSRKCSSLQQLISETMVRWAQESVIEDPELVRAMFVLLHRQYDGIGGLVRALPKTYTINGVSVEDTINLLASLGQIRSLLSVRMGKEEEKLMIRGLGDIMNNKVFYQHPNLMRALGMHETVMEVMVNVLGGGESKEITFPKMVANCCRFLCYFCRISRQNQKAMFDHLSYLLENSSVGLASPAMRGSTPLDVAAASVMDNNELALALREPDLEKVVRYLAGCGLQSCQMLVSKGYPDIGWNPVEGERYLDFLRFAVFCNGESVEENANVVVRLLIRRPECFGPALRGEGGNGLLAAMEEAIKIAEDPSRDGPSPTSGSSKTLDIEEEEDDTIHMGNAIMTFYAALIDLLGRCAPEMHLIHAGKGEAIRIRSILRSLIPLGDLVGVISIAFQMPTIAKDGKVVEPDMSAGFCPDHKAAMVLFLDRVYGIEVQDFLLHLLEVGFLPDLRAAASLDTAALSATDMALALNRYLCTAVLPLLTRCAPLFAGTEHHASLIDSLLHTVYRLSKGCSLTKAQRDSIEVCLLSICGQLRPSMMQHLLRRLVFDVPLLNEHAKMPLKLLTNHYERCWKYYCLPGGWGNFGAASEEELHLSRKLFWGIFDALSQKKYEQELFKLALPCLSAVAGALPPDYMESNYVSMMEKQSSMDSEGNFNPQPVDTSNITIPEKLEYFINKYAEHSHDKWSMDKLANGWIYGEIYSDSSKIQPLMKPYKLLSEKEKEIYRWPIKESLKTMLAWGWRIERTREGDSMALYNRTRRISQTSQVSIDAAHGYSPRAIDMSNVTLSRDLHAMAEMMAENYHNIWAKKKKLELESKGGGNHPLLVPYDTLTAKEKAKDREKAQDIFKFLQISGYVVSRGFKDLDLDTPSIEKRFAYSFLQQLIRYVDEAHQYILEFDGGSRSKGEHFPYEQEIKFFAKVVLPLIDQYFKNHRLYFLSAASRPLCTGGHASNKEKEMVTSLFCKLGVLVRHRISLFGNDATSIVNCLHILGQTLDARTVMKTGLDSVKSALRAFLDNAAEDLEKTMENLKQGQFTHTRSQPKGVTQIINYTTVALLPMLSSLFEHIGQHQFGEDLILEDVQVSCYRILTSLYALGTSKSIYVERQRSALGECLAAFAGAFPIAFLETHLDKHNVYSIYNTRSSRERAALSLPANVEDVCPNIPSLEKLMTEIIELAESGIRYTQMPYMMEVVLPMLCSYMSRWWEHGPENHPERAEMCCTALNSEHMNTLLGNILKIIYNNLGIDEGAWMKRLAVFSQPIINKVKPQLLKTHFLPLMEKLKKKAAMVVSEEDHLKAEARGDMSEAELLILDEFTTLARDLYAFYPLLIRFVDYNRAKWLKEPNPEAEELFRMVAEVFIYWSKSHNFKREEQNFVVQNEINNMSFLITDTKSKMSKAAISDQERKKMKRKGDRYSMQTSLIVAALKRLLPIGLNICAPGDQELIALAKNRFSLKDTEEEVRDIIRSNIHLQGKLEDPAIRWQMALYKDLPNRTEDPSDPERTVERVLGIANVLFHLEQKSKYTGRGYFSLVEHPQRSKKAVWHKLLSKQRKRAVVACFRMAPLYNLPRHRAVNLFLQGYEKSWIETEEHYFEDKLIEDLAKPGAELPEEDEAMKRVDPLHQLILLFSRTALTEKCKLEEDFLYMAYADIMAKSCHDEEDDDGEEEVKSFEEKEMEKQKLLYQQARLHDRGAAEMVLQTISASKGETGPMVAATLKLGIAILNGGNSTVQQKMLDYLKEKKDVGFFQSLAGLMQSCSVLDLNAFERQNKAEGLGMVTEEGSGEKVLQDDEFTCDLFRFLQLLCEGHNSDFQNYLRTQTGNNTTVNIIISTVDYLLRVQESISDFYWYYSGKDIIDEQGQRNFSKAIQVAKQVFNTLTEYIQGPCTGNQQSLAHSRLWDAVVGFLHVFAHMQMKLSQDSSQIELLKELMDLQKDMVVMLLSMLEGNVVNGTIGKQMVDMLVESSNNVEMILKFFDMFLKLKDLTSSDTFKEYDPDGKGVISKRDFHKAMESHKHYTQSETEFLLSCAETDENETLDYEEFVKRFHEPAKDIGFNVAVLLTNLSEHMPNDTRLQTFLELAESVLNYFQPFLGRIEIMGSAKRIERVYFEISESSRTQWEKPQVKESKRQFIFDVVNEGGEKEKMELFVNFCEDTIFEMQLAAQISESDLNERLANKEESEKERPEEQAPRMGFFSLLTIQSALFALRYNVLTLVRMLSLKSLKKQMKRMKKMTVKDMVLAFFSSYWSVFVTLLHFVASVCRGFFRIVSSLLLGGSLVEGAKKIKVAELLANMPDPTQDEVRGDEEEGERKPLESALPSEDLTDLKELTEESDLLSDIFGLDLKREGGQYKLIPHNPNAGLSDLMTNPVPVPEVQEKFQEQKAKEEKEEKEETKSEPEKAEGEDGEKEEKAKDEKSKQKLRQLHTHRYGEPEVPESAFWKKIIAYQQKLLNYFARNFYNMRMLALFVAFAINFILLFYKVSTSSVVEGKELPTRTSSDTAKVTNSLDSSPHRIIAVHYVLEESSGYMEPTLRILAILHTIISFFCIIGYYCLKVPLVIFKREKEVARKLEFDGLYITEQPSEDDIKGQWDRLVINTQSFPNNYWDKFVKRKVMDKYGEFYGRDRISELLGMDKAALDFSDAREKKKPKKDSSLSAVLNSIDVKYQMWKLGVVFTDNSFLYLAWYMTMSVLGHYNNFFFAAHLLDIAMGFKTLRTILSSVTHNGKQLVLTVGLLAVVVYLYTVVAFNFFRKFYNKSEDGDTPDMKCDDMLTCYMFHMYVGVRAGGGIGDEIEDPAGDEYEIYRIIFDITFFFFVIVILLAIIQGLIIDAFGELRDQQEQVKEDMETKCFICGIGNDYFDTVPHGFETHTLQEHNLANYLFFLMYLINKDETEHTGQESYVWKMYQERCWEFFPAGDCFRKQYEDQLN

B1: E2-liganded ERβ: ERβ protein bound to its ligand 17β-estradiol (E2) (protein, UniProt Q92731 1-530, looked up)
Estrogen receptor beta: MDIKNSPSSLNSPSSYNCSQSILPLEHGSIYIPSSYVDSHHEYPAMTFYSPAVMNYSIPSNVTNLEGGPGRQTTSPNVLWPTPGHLSPLVVHRQLSHLYAEPQKSPWCEARSLEHTLPVNRETLKRKVSGNRCASPVTGPGSKRDAHFCAVCSDYASGYHYGVWSCEGCKAFFKRSIQGHNDYICPATNQCTIDKNRRKSCQACRLRKCYEVGMVKCGSRRERCGYRLVRRQRSADEQLHCAGKAKRSGGHAPRVRELLLDALSPEQLVLTLLEAEPPHVLISRPSAPFTEASMMMSLTKLADKELVHMISWAKKIPGFVELSLFDQVRLLESCWMEVLMMGLMWRSIDHPGKLIFAPDLVLDRDEGKCVEGILEIFDMLLATTSRFRELKLQHKEYLCVKAMILLNSSMYPLVTATQDADSSRKLAHLLNAVTDALVWVIAKSGISSQQQSMRLANLLMLLSHVRHASNKGMEHLLNMKCKNVVPVYDLLLEMLNAHVLRGCKSSITGSECSPAEDSKSKEGSQNPQSQ
modifications: bound to 17β-estradiol
Question: With B1 as the molecule, how does the “block of RyR (decrease)” value read?
Answer: Its value is 5-10.

Source: patent publication US20090075888A1, “Cardiovascular and Brain Cell Therapy Using Intracellular Ryanodine Receptor Modulation by the Estrogen Receptor Beta” (University of North Texas Health Science Center at Fort …, priority 2007, published 2009)
